Values of other authors in paper PMC7242566, “The Three Lipocalins of Egg-White: Only Ex-FABP Inhibits Siderophore-Dependent Iron Sequestration by Salmonella Enteritidis” (Frontiers in Microbiology, 2020).

Chains of the proteins cited; added tags and fusions are not shown. Residues count along the entry.
UniProt P21760, 21-178: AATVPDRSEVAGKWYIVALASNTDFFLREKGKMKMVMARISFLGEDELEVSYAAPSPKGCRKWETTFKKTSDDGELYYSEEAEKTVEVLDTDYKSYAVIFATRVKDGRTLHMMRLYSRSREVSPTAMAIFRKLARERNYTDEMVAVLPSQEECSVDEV

Target: T1, Ex-FABP (Gallus gallus, UniProt P21760)
T1 construct: made in house; host or cells: E. coli K-12 BW25113 ΔentB::kan (JW0587) (λDE3), pET21a, periplasmic secretion
Conditions: protein printed as Ex-FABP; ref Fischbach et al., 2006; cited from earlier work

Substance: salmochelin [apo-Sal (or DGE)]
- Kd: Under threshold
